Amino acid sequences for entries named in this document (tags omitted). A change or cut given only in a name is not applied to a line headed by its entry.
UniProt P11388: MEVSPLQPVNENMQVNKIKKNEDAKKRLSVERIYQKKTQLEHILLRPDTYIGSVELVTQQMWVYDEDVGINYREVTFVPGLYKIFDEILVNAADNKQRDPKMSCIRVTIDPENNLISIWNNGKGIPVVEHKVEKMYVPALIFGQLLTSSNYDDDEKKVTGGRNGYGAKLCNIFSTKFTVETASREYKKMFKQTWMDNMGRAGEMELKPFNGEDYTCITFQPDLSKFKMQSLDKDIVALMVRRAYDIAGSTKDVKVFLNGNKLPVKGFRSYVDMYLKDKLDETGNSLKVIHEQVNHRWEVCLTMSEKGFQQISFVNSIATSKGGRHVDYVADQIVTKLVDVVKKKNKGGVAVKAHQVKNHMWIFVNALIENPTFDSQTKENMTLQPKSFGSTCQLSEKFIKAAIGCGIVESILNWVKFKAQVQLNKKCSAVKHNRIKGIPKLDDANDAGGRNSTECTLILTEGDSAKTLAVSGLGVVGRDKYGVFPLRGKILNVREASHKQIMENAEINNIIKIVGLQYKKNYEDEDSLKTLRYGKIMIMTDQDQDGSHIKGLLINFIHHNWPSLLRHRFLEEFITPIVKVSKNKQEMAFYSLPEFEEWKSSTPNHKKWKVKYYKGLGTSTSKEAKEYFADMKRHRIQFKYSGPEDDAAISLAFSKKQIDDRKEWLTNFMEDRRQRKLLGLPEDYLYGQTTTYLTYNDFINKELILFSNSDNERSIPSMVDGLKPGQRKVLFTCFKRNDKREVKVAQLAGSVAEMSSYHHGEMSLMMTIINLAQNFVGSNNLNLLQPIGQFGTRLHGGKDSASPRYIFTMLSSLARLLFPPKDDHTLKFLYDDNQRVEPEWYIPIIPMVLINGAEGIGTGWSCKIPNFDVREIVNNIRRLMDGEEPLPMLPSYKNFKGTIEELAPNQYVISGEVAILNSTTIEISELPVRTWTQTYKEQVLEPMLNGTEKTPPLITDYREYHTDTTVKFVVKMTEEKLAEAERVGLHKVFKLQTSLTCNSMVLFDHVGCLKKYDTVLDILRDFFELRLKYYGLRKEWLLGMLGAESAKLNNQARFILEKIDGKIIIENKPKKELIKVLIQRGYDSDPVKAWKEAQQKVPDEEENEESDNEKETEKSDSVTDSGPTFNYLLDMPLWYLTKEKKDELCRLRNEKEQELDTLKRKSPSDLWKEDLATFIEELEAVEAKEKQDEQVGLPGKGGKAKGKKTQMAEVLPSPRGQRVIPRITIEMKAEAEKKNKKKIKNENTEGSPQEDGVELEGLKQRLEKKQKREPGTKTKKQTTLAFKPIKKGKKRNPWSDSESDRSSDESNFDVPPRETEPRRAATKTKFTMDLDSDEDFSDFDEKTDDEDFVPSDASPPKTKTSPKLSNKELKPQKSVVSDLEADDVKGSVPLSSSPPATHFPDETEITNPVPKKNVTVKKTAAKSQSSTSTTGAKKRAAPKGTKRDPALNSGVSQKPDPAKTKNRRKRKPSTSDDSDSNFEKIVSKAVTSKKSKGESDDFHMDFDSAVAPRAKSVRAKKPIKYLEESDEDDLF

In publication PMC9930781, “Design, synthesis, docking, and anticancer evaluations of new thiazolo[3,2-a] pyrimidines as topoisomerase II inhibitors” (Journal of Enzyme Inhibition and Medicinal Chemistry, 2023):

Target: human topoisomerase II (Homo sapiens, UniProt P11388)
Assay: DNA Topo II inhibition (kDNA decatenation) assay
Format: biochemical
Conditions: four concentrations 0.1-100 µM, mean ± SD of two independent assays
Method: The ATP-dependent decatenation of kinetoplast DNA (kDNA) obtained from Crithidia fasciculata, which consists of a network of numerous minicircles (2.3 Kb) and some maxicircles, was used to measure topoisomerase II inhibition. Reactions took place in 20 μL and comprised topoisomerase II, 200–300 ng of kDNA, and 120 mM KCl with 50 mM Tris-HCl, pH 8, 10 mM MgCl2, 0.5 mM ATP, and 0.5 mM dithiothreitol. In preliminary tests, the quantity of topoisomerase II (5 units) was changed to decatenate almost 100% of the kDNA under these assay circumstances. […] The products in the reaction mixture were separated by a 1% agarose gel after the reaction was complete and then could be seen after being stained with ethidium bromide (0.2 μg/mL). The gels were run at 100 V for about 40 min and visualised under UV transillumination.
This assay is based on the fact that human Topo II can decatenate interlinked double-stranded DNA molecules.

`COc1cccc2c1C(=O)c1c(O)c3c(c(O)c1C2=O)C[C@@](O)(C(=O)CO)C[C@@H]3O[C@H]1C[C@H](N)[C@H](O)[C@H](C)O1` [Doxorubicin, reference compound] gave an IC50 of 830 ± 50 nM.
